Measurements: article PMC3317930, “A Human PrM Antibody That Recognizes a Novel Cryptic Epitope on Dengue E Glycoprotein” (PLoS ONE, 2012)

Target: T1, prM protein of DENV4 (Dengue virus 4, strain H241, UniProt Q58HT7)
T1 construct: also called pre-membrane protein; source: DENV4-infected Vero cells, in lysate
Experiment: Western blot
Settings: one partner purified

B1: D29 Fab-IgG (antibody, V domains shown)
VH: QMQLVQSGGGVVQPGRSLRLSCAASGFTFSSYAMHWVRQAPGKGLEWVAGTSYDGSNKYYADSVKGRFTISGDNSKNTVYLQMNSLRAEDTAVYYCARAHSSGWYDAFDIWGQGTTVTVSS
VL: SYVLTQPPSVSVSPGQAASITCSGDKLGDKYAWWYQQKPGQSPVMVIHQDDKRPSGIPERFSGSNSGNTATLTITGTQAMDEADYYCQAWDRTTVVFGGGTKLTVL
notes: source: HEK 293 T cells (Fab from a non-immunized human Fab phage library, converted into human IgG format)
B1: binds.
